Holding throughout (type): cell-based
For experiment [1], the target named is T1, C5aR1 wild type (Homo sapiens, UniProt P21730).
T1 construct: expressed in transfected cells; host or cells: HEK293
T1 sequence (P21730 1-350): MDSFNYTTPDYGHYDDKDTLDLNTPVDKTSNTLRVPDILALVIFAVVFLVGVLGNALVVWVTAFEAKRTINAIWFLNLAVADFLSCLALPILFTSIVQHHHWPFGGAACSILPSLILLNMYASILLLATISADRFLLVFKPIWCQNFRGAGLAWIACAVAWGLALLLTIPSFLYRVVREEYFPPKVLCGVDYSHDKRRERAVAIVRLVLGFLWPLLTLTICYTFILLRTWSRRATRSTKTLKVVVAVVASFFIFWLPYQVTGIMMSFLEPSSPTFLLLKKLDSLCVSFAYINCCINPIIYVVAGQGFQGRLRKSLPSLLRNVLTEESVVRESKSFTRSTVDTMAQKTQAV
As to the kind of experiment: BRET-based Gαi1–γ2 dissociation assay (G protein signaling). Conditions: HEK293, Gi protein dissociation assay (Fig. S10a), ligand 10 min, mean±SEM, n=3. The method, then:
The activation of C5aR1 induced by ligands was measured through BRET-based Gαi1 dissociation from Gβ1γ2 as previously described.[60] HEK293 cells were plated in 6-well plates containing 600,000–800,000 cells per well and cultured 24 h at 37 °C in cell incubator. […] After transfection for 24 h, cells were harvested and dispensed into 96-well white plates and allowed to culture overnight. […] Next, prepared ligands were added into cells for 10 min and the second BRET signal was measured. […] Data were analyzed using a simulation dose-response in GraphPad Prism 7.
Background: Bioluminescence resonance energy transfer reports proximity on the nanometre scale.

Experiment [2] deals with T2, C5aR1 R1754.64A (Homo sapiens, UniProt P21730, R175A).
T2 construct: expressed in transfected cells; host or cells: HEK293
T2 sequence (P21730 1-350 R175A): T1 sequence (P21730 1-350) with R175A
As to the kind of experiment: cAMP inhibition assay (GloSensor). Conditions: HEK293, 2.5 μM forskolin, mean±SEM, n=3. The method, then:
(§1) The cDNA sequences of wild-type C5aR1 were cloned into the expression vector pcDNA3.1(+) with a HA signal sequence followed by a Flag tag at the N-terminus. Mutants used in our study were generated by using the Q5 site-Directed Mutagenesis kit (NEB). All the constructs were verified by sanger sequencing. The constructs were transiently expressed in HEK293 cells using PEI transfection reagent (YEASEN, 40816ES02) according to the manufacturer’s instruction. Cells were harvested 48 h post transfection. Cell surface expression levels of receptors were measured by enzyme-linked immunosorbent assay (ELISA).
(§2) To measure cAMP inhibition effects on the forskolin-induced cAMP accumulation of C5aR1, the GloSensor cAMP assay (Promega) was performed as described in the previous study.[59] Briefly, Flag-tagged wild-type human C5aR1 was co-expressed with GloSensor plasmid in HEK293 cells in 6-well culture plates. After at least 24 h, transfected cells were harvested and suspended in assay buffer Hank’s Balanced Salt Solution (HBSS) containing 10 mM HEPES, pH 7.4, with an additional 3% v/v dilution of the D-Luciferin-Potassium Salt (YEASEN, 40902ES01). The ligands used in this study were dissolved in H2O to a stock concentration of 10 mM and followed by serial dilution using HBSS solution immediately before ligand stimulation. After incubation at 37 °C for 2 h, cells were stimulated by ligand (diluted in assay buffer containing 2.5 μM forskolin) for 30 min at room temperature. […] Finally, the luminescence signals were counted on the Synergy H1 microplate reader (BioTek). Each measurement was repeated in at least three independent experiments, each in triplicate. Data were processed using the nonlinear regression (curve fit) dose-response function in GraphPad Prism 7 to calculate the values of Emax and EC50.

For experiment [3], the target named is T3, C5aR1 D191ECL2A (Homo sapiens, UniProt P21730, D191A).
T3 construct: expressed in transfected cells; host or cells: HEK293
T3 sequence (P21730 1-350 D191A): T1 sequence (P21730 1-350) with D191A
Nature of the experiment: cAMP inhibition assay (GloSensor). Conditions: HEK293, 2.5 μM forskolin, mean±SEM, n=3. The method, then:
as §1, §2

In experiment [4] the target is T4, C5aR1 W102ECL1A (Homo sapiens, UniProt P21730, W102A).
T4 construct: expressed in transfected cells; host or cells: HEK293
T4 sequence (P21730 1-350 W102A): T1 sequence (P21730 1-350) with W102A
Nature of the experiment: BRET β-arrestin 2 recruitment. Conditions: HEK293, BRET, mean±SEM, n=3, Table S3, read-out: EC50, β-arrestin2 recruitment. The method, then:
Briefly, HEK293 cells were transiently transfected with C5aR1-Nluc and mVenus-β-arrestin 2 or C5aR2-mVenus and Nluc-β-arrestin 2 constructs using PEI transfection reagent (YEASEN, 40816ES02) according to the manufacturer’s instruction. At 24 h post transfection, the cells were gently detached and seeded (100,000/well) onto 96-well white plates in DMEM containing 5% FBS. On the next day, cells were washed once with Phosphate Buffered Saline (PBS) and incubated in HBSS containing 20 mM HEPES, pH 7.4, with coelenterazine h (5 μM, YEASEN, 40906ES02) for 1 h (37 °C, 5% CO2). […] We carried out the nonlinear regression (curve fit) dose-response function in GraphPad Prism 7 to yield the values of Emax and EC50.

Where a chain is given by its changes, count along the chain named.

As a reminder, the EC50 is the midpoint of the concentration-response curve.

B1: C5a: 74-amino-acid complement fragment, endogenous agonist; recombinant human C5a, free cysteine replaced by arginine (protein)
chain: TLQKKIEEIAAKYKHSVVKKCCYDGARVNNDETCEQRAARISLGPRCIKAFTECCVVASQLRANISHKDMQLGR
modifications: three intramolecular disulfides; non-glycosylated (E. coli); Trx-His6 tag removed with TEV
With B1, the EC50 in experiment [1] is 3.67 ± 0.46 nM; in experiment [2] it was 13.1 ± 2.21 nM; in experiment [3] it was 8.14 ± 1.47 nM; in experiment [4], 51.5 ± 18.3 nM.

The values are drawn from publication PMC9937529, “Mechanism of activation and biased signaling in complement receptor C5aR1” (Cell Research, 2023).
